## Apparent affinities of Ab-95 variants for a coronavirus HR2 peptide

From the AlphaSeq antibody data of Engelhart et al. 2022 (doi:10.1038/s41597-022-01779-4), copy in the FLAb collection.

The target is the same throughout: PDVDLGDISGINAS, from the HR2 region of SARS-CoV-2 spike.

The variants keep the heavy chain, the linker and the frameworks of Ab-95 (scFv order VH, the linker GGGGSGGGGSGGGGS, VL).
VH: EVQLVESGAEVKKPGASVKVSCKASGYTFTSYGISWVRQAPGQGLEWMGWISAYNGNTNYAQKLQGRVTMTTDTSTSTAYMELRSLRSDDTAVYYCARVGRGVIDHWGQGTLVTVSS
VL: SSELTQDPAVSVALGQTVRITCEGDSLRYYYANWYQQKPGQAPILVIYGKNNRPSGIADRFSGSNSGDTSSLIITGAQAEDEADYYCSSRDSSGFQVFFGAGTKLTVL

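The starting antibody came from a phage panning campaign against this peptide. AAYL52 was designed without a model: most single CDR substitutions and a random sample of double and triple ones. The assay is AlphaSeq: two haploid yeast populations carry antibody and antigen on their surface. After mating in shaken culture at 30 °C for 16 h, diploids were selected and their barcode pairs sequenced. Each replicate has its own calibration line, from reference interactions of the BCL2 family. Mating was done three times.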

Substitutions are numbered in sequence along the VL above, starting at 1 (not Kabat).
Affinities are written as log10 Kd with Kd in nM; a lower number is a better binder.
The mean shown is taken over the replicates in which the pair was detected.
An entry "not detected" has no value in the source: the pair was not observed among the diploids in any replicate. This suggests poor binding but is not conclusive.
Parent in this assay: reference entry 2.31, copy in this library 2.25.
Three control strains display no target. For library AAYL52, 28% of the pairings with them gave a signal, with a median of 3.91 and one signal in twenty below 2.90, so weak values seen in few replicates may be background.

{"changes": "G49N/S88N/Q96M", "mean, log10 nM": "4.20", "seen in": "2 of 3"}
{"changes": "K50C/N51P/F98L", "mean, log10 nM": "4.02", "seen in": "3 of 3"}
{"changes": "D25C/F95P/Q96R", "mean, log10 nM": "not detected", "seen in": "0 of 3"}
{"changes": "A32G/S89H", "mean, log10 nM": "3.70", "seen in": "2 of 3"}
{"changes": "R53V/R90S/S92I", "mean, log10 nM": "2.70", "seen in": "3 of 3"}
{"changes": "Y31K/N51F/S88L", "mean, log10 nM": "not detected", "seen in": "0 of 3"}
{"changes": "R28T/S89M/V97G", "mean, log10 nM": "4.37", "seen in": "3 of 3"}
{"changes": "Y31N/K50I/R53K", "mean, log10 nM": "1.18", "seen in": "3 of 3"}
{"changes": "Y31R/S92H", "mean, log10 nM": "3.30", "seen in": "1 of 3"}
{"changes": "R53Y/P54N/D91Q", "mean, log10 nM": "not detected", "seen in": "0 of 3"}
{"changes": "Y30F/S88T/R90F", "mean, log10 nM": "4.34", "seen in": "1 of 3"}
{"changes": "G24I/S26E/N51A", "mean, log10 nM": "4.66", "seen in": "1 of 3"}
{"changes": "Y29R/S92W/S93H", "mean, log10 nM": "3.30", "seen in": "2 of 3"}
{"changes": "R28M/G49M/S92N", "mean, log10 nM": "not detected", "seen in": "0 of 3"}
{"changes": "S26W/S88T/S93F", "mean, log10 nM": "not detected", "seen in": "0 of 3"}
{"changes": "R53I/F95Q", "mean, log10 nM": "2.64", "seen in": "3 of 3"}
{"changes": "L27H/P54S/F95A", "mean, log10 nM": "4.19", "seen in": "2 of 3"}
{"changes": "S26C/R90C/Q96H", "mean, log10 nM": "4.21", "seen in": "2 of 3"}
{"changes": "R53K/S92Q", "mean, log10 nM": "1.64", "seen in": "3 of 3"}
{"changes": "Y30F/S92V", "mean, log10 nM": "3.26", "seen in": "2 of 3"}
{"changes": "K50N/S55D/S92D", "mean, log10 nM": "2.74", "seen in": "3 of 3"}
{"changes": "L27F/S88Q/R90M", "mean, log10 nM": "4.67", "seen in": "1 of 3"}
{"changes": "Y29L/G49C/S92L", "mean, log10 nM": "not detected", "seen in": "0 of 3"}
{"changes": "E23M/N52H/V97T", "mean, log10 nM": "4.83", "seen in": "2 of 3"}
{"changes": "A32K/N33Y", "mean, log10 nM": "4.09", "seen in": "2 of 3"}
{"changes": "L27M/V97H", "mean, log10 nM": "3.04", "seen in": "3 of 3"}
{"changes": "R28Y/K50P/G94R", "mean, log10 nM": "not detected", "seen in": "0 of 3"}

Again, the first 5 entries without any signal:

{"changes": "D25C/F95P/Q96R", "mean, log10 nM": "not detected", "seen in": "0 of 3"}
{"changes": "Y31K/N51F/S88L", "mean, log10 nM": "not detected", "seen in": "0 of 3"}
{"changes": "R53Y/P54N/D91Q", "mean, log10 nM": "not detected", "seen in": "0 of 3"}
{"changes": "R28M/G49M/S92N", "mean, log10 nM": "not detected", "seen in": "0 of 3"}
{"changes": "S26W/S88T/S93F", "mean, log10 nM": "not detected", "seen in": "0 of 3"}